Assay results published in paper PMC6522524 (Nature Communications, 2019).

Sequences of proteins named here, by UniProt entry; tags and fusion partners are left off. Residues count along the entry.
UniProt P03146, 1-149: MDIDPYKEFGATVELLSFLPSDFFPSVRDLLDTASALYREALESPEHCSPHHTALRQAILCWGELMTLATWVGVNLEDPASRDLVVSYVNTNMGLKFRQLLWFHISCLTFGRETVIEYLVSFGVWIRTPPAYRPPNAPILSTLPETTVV

Tests used:
[1] = ref https://www.drugbank.ca/; cited from earlier work
[2] = biological target: T1, Cp149 (truncated HBV core protein) (Hepatitis B virus genotype D subtype ayw, UniProt P03146); format: biochemical; details: read-out: IC50, in vitro HBV capsid (core) assembly
T1 construct: Cp149 (amino acids 1–149) is a truncated form of the HBV core protein; made in house; host or cells: Escherichia coli

L-Adrenaline
pKa value (acidic) [1]: 9.69 | pKa value (basic) [1]: 8.91

GLS-4
IC50 [2]: 437 ± 6 nM
